These results are taken from patent US12441767B2 (priority 2020, dated 2025).

Like-named read-outs stand apart in the source and are kept apart here. Ends that are not written are not given here.

In the test the test system is p-Smad2. Format: cell-based, human.

In the case of “Gonearrestide (WCYKLPDRVSIKEKGRCN-NH2; cysteine pairing not given here) [P13]”, the p-Smad2 expression result is listed as “up-regulated” (E6 with 0.2 μmol AZD4547 + peptide (with or without FGF2) vs control E6 and E6 with 0.2 μmol AZD4547); “up-regulated” (E6 with 1.0 μmol PD173074 + peptide (with or without FGF2) vs control E6 and E6 with 1.0 μmol PD173074).
